# According to ChEMBL document CHEMBL4828734, “Discovery of High-Affinity Inhibitors of the BPTF Bromodomain” (J Med Chem, 2021):
# Tested on: MV4-11
# Assay: Antiproliferative activity against human MC4-11 cells assessed as reduction in cell viability after 5 days by Celltiter-Glo assay
# Type: functional, cell-based
# Conditions: time 5.0 day
compound,measurement,value
CN(C)CCCn1ccc2cc(-c3nc(S(C)(=O)=O)nc4[nH]ccc34)ccc21,Activity,Dose-Dependent Effect
